Laboratory results: PubChem BioAssay AID1947 (The Scripps Research Institute Molecular Screening Center, 2009)
The list shows a part of the results, in another mix than the full data. Calls of active or inactive are those of the source.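 How the source made its calls: active means inhibition above the screen mean inhibition plus 3 SD, computed separately per campaign (cut at about 18% in these data); inactive means the rest.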

Test system: Fam108B (ABHD17B) serine hydrolase [Mus musculus]
Test: inhibition of Fam108B (ABHD17B) hydrolase – biochemical, fluorescence polarization, counter-screen for RBBP9 inhibitor project, primary screen (AID 1947);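 further: inhibitors lower polarization as less probe binds the enzyme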
Details: recombinant Fam108B, FP-Rh probe fluorescence polarization; at 9.51 µM; stronger effect = higher value

| Structure (SMILES) | inhibition |
| --- | --- |
| CC(C)=N/N=C(\N)N[N+](=O)[O-] | inactive: 0.41% |
| CN(C)C(=O)OCCc1n(C)cc[n+]1C | inactive: 3.46% |
| CCN(/C(=N/P(=O)(N1CCOCC1)N1CCOCC1)N1CCOCC1)c1ccc(OC)cc1 | inactive: -0.7% |
| Nc1ccc([As](=O)(O)c2ccc(N)cc2)cc1 | inactive: 1.61% |
| C[N+]1=C2C=CC=CC=C2SC12C([N+](=O)[O-])=CC([N+](=O)[O-])=C[C-]2[N+](=O)[O-] (configuration not stated) | active: 18.4% |
| Cc1ccc(NP(=O)(Oc2ccccc2)Oc2ccccc2)nc1 | inactive: -1.72% |
| CCc1nc2c(n1)c1c(non1O)c1c2no[n+]1[O-] | inactive: 6.68% |
| O=[N+]([O-])c1cc([N+](=O)[O-])c(CCNc2ccccc2)c([N+](=O)[O-])c1 | inactive: 15.6% |
| O=[N+]([O-])c1cccc2n[nH]nc12 | inactive: -1.22% |
| CC(=O)N1C2C3N(C(C)=O)C1C1N(C(C)=O)C(C(N1C(C)=O)N3C(C)=O)N2C(C)=O | inactive: 4.84% |
| COc1ccc(C2=NCC(CBr)S2)cc1 (configuration not stated) | inactive: 4.06% |
| O=[N+]([O-])c1cccc(NC2=NCC(CBr)S2)c1 (configuration not stated) | inactive: 4.11% |
| O=[N+]([O-])c1ncn(CCn2ncnc2[N+](=O)[O-])n1 | inactive: -3.9% |
| CC(C)(C)C(=O)NC(Sc1ccncn1)C(Cl)(Cl)Cl (configuration not stated) | inactive: 0.72% |
| O=C(Nc1cc([As](=O)(O)O)ccc1O)c1ccccc1 | inactive: -0.56% |
| O=C(OC1CN2CCC1CC2)c1cccc(Cl)c1 (configuration not stated) | inactive: -0.24% |
| C(Cc1nn[nH]n1)Cc1nn[nH]n1 | inactive: -0.29% |
| Nc1ccc([As](=O)(O)c2ccc([N+](=O)[O-])cc2)cc1 | inactive: -1.55% |
| O=[As](O)(c1ccccc1)c1ccc(O)cc1 | inactive: 1.44% |
| O=[N+]([O-])c1ccc(O)c(/C=N/Nc2ccc([N+](=O)[O-])cc2[N+](=O)[O-])c1 | inactive: 2.69% |
| CC(=O)NC(SC(=S)N(C)C)C(Cl)(Cl)Cl (configuration not stated) | inactive: 1.59% |
| O=[N+]([O-])c1ncn(CCn2cnc([N+](=O)[O-])n2)n1 | inactive: 3.85% |
| O=P(Nc1nc2ccccc2s1)(c1ccccc1)c1ccccc1 | inactive: -0.97% |
| C[C@H]1OP(=O)(Oc2ccccc2)[C@H](O)[C@H](O)[C@H]1N=[N+]=[N-] (some centres not stated) | inactive: 0.17% |
| O=P(Nc1ccccn1)(c1ccc(Br)cc1)c1ccc(Br)cc1 | inactive: 0.56% |
| CN(C)C1(CNC(=O)c2ccc(Cl)c(S(N)(=O)=O)c2)CCCCC1 | inactive: -4.59% |
| c1nnnn1CCn1cnnn1 | inactive: 0.74% |
